Measured values taken from ChEMBL document CHEMBL1255325, “Plasmid-mediated qepA gene among Escherichia coli clinical isolates from Japan” (2008).

System: Escherichia coli
Details: isolate DH10B

Question: For GENTAMICIN, which MIC is on record?
Answer: 0.5 µg/mL
